Experimental data from patent US6399349B1, “Human aminopeptidase P gene” (priority 1997, dated 2002).

Columns and labels:
[1] = molecular target: T1, pulmonary endothelial AmP (Rattus norvegicus, UniProt Q99MA2); details: in vivo
T1 sequence (Q99MA2 23-650): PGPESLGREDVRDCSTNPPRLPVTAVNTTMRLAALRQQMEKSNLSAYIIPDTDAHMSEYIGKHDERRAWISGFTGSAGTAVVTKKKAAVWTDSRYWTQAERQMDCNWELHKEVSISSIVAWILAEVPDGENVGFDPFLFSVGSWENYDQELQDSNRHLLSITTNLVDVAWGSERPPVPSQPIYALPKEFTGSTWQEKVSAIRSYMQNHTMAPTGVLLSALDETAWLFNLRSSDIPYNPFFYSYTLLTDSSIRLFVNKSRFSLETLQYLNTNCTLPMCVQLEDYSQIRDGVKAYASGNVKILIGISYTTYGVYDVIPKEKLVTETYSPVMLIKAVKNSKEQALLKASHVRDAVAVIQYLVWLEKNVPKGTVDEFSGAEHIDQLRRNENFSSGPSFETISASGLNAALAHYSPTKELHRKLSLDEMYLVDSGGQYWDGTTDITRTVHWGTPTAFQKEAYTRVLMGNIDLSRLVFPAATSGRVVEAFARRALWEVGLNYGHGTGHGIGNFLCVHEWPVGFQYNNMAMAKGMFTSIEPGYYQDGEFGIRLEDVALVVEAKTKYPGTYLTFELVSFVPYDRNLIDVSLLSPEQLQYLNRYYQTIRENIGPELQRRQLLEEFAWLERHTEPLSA

[2] = molecular target: T2, AmP (Rattus norvegicus, UniProt Q99MA2)
T2 sequence (Q99MA2 23-650): T1 sequence (Q99MA2 23-650)

mean hydrolysis of APPBz-3H [1]: about 55%
hydrolysis of APPBz-3H in isolated perfused lungs [2]: extensively hydrolyzed
Substance: Arg-Pro-Pro-[^3H]benzylamide [APPBz-^3H]
